Laboratory results reported in patent US7098206B2, “Pharmaceutically active morpholinol” (SmithKline Beecham Corporation, priority 1998, dated 2006).

The chains behind the UniProt entries cited, without tags or fusion partners. Residues count along the entry.
UniProt Q63380, 1-617: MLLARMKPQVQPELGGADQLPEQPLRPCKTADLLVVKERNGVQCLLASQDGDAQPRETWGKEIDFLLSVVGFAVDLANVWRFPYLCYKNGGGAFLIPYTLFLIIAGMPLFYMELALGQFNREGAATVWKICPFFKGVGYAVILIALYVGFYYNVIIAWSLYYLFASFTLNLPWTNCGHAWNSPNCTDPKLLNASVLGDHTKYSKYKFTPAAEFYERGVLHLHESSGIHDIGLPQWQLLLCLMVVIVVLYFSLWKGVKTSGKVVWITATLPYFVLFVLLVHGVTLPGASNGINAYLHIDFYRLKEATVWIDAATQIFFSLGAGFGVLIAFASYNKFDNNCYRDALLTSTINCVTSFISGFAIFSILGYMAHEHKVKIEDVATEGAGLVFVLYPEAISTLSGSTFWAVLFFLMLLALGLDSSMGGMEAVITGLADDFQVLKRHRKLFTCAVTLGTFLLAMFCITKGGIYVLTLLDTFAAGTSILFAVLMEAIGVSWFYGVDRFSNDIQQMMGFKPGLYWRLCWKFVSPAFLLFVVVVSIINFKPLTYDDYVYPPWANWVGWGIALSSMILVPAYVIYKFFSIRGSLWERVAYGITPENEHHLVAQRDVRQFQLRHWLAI

Target: T1, noradrenaline (NA) uptake, synaptosomes from rat hypothalamus (Rattus norvegicus, UniProt Q63380)
T1 construct: Synaptosomes for use in obtaining in vitro uptake data were prepared from hypothalamus or striatum by gently homogenizing the tissue; from tissue; host or cells: rat hypothalamus synaptosomes
Test: In vitro synaptosomal [3H]-noradrenaline uptake
Type: biochemical

## CN(C)CCCN1c2ccccc2CCc2ccccc21 [Imipramine]
  IC50: 72 nM
